This note sets out measurements from PubChem BioAssay AID720494 (Broad Institute, 2013).

This assay is described as follows: compounds quenching or disrupting AlphaScreen beads readout – biochemical, cherry-picked samples, luminescence, artefact control, dose response (AID 720494). To be noted: AlphaScreen interference counter-screen, signal luminescence; at 12 µM (top of the series).

This is a selection; strong and weak results do not stand in their true shares. Active and inactive are the calls of the source. Cut-off not given; nearly all actives show AC50 up to about 14 µM.

On to `CCC(c1nnnn1C1CCCCC1)N1CCC(n2c(=O)[nH]c3ccccc32)CC1` (stereo unspecified), for which the activity change, negative = inhibition was inactive: -28.8%.
